# Test system: Lrp-like protein
# Experiment: Gel filtration analysis of changes in assemblies of the Lrp-like protein on mixing with potential ligands
# Type: biochemical, Pyrococcus sp. OT3
# Details: metabolic intermediate 10 mM
# Method: Possible changes in assemblies of the Lrp-like protein induced by interaction with amino acids and metabolic intermediates were analyzed in solution using gel filtration.
# Gel filtration was carried out with the flow rate […], using a matrix (Protein Pak 125, 7.8×300 mm, Waters) and 50 mM Tris-HCl buffer (pH 7.0) containing 300 mM sodium chloride. Flow of the proteins was monitored by measuring the UV absorbance at 220 nm (LC Module I plus system, Waters). The Lrp-like protein purified by method 2, i.e., the rigorous method, were dissolved in 50 mM Tris-HCl buffer (pH 7.0) containing 200 mM sodium chloride, and kept at −80° C. until it was diluted by 10-fold with 50 mM Tris-HCl buffer (pH 7.0) containing 300 mM sodium chloride, and mixed with each potential ligand for at least 30 minutes at room temperature (about 25° C.). In the mixture, the monomer concentration of the Lrp-like protein was approximately 100 μM.
compound,measurement,setting,value
O=C(O)CCC(=O)C(=O)O [2-oxoglutaric acid],effect on assembling of the Lrp-like protein concluded from gel filtration,,intermediate effects
same,change in gel filtration profile of the Lrp-like protein (peak increased),"protein monomer approximately 100 μM, at least 30 minutes at room temperature, UV 220 nm",the third peak increased

# Source: patent US20050208463A1, “Method of screening drug” (priority 2001, published 2005)
